Measured values taken from publication PMC5415086 (Nature, 2010).

Tested on: serum TNF
Details: I-BET 1 hour before LPS; samples 2 hours after LPS

## CCNC(=O)C[C@@H]1N=C(c2ccc(Cl)cc2)c2cc(OC)ccc2-n2c(C)nnc21 [I-BET]
  serum TNF levels: unaltered
